Reference: ChEMBL document CHEMBL1144449, “Design, synthesis, and evaluation of orally active 4-(2,4-difluoro-5-(methoxycarbamoyl)phenylamino)pyrrolo[2,1-f][1,2,4]triazines as dual vascular endothelial growth factor receptor-2 and fibroblast growth factor receptor-1 inhibitors” (J Med Chem, 2005)

Protein sequences, listed by entry. Tags and fused reporters are not part of them. Residues count along the entry.
UniProt P08069, 741-1367 limits assumed: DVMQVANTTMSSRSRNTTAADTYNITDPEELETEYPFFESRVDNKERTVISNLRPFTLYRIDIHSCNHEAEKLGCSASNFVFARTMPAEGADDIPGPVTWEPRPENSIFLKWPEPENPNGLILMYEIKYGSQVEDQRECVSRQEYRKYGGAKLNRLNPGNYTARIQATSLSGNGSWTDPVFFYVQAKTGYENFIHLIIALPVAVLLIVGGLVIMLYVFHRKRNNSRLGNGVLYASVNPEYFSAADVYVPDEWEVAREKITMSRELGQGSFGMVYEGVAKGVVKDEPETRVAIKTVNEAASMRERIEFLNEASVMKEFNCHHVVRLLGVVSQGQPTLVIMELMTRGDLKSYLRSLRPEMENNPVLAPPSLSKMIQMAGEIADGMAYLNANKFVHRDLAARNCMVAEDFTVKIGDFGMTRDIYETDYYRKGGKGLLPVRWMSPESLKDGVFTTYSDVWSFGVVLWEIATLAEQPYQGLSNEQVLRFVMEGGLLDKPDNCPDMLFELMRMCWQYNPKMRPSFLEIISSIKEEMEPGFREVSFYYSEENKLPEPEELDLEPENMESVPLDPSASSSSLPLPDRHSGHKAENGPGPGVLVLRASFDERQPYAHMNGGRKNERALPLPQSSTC
UniProt P08069, 31-736 limits assumed: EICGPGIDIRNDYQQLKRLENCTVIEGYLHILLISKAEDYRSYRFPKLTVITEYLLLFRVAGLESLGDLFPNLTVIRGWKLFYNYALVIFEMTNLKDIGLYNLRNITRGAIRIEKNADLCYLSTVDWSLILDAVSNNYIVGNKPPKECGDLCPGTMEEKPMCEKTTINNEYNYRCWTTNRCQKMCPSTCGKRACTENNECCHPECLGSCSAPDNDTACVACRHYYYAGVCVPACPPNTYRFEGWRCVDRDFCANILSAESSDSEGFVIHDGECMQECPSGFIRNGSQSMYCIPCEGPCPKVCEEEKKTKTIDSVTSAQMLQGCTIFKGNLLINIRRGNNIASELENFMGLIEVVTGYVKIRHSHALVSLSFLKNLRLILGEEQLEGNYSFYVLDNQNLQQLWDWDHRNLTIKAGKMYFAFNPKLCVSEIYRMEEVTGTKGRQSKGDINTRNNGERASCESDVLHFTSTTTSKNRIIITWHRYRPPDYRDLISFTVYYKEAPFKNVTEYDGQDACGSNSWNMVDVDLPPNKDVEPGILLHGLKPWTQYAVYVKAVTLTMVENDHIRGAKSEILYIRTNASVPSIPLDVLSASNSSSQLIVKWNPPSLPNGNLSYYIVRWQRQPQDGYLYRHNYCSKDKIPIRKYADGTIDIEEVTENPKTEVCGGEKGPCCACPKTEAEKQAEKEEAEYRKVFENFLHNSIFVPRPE

Target: Insulin-like growth factor 1 receptor (Homo sapiens, UniProt P08069)
Test: Inhibition of human insulin-like growth factor I receptor

CONC(=O)c1cc(Nc2ncnn3cc(-c4nnc(C(F)(F)S(C)(=O)=O)o4)c(C(C)C)c23)c(F)cc1F gave an IC50 of over 25 µM.
